In EP4831293A1, “BIOSYNTHETIC GENE CLUSTER FOR POLYENE MACROLIDE NATURAL PRODUCT MANDIMYCIN, AND NATURAL PRODUCT AND USE THEREOF” (dated 2026):

How the values were obtained:
blood cells = test: Hemolytic activity; conditions: 12.5 µM, 37°C, 3 h, sheep blood cells
[1] = In vivo nephrotoxicity evaluation (biomarkers, histopathology); conditions: mice, s.c. 1, 5, 10 or 20 mg/kg once daily
[2] = Isothermal titration calorimetry (ITC), phospholipids as a group; conditions: 25°C, 5.0 mM HEPES pH 7.4
[3] = Water solubility, saturated solution in Tris-HCl buffer, UV quantification
Method: Amphotericin B (1.2 mg/mL) and mandimycin purified in Example 3 (12 mg/mL) were separately dissolved in methanol to prepare stock solutions of amphotericin B (1.2 mg/mL) and mandimycin (12 mg/mL), respectively. A 100 µL aliquot of each of the resulting stock solutions was pre-frozen using liquid nitrogen, and then lyophilized in a freeze dryer for 24 h. Subsequently, 50 µL (for amphotericin B) or 2 µL (for mandimycin) of 10 mM Tris-HCl buffer (pH = 7.4) was added to the freeze-dried samples, and the mixtures were vortexed for 15 min to obtain saturated solutions. The mixtures were centrifuged at 12,000 rpm for 3 min, and the resulting supernatants were diluted with Tris-HCl buffer (10-fold dilution for amphotericin B and 1,000-fold dilution for mandimycin). A 10 µL aliquot was injected, and concentrations of the compounds in solution were determined by measuring the UV absorption spectra using a Shimadzu PDA detector spectrophotometer. Specifically, amphotericin B and mandimycin were accurately weighed and dissolved in DMSO to prepare 2 mg/mL stock solutions. The characteristic heptaene UV absorption peak of amphotericin B at its maximum absorption wavelength of 384 nm was used for quantification based on peak area. The characteristic pentaene UV absorption peak of mandimycin at its maximum absorption wavelength of 334 nm was used for quantification based on peak area.

[4] = Isothermal titration calorimetry (ITC); conditions: ergosterol, 25°C, 5.0 mM HEPES pH 7.4

Substance	hemolytic activity (blood cells)	nephrotoxicity-related indicators (KIM-1, TIMP-1, NGAL, OPN) [1]	binding to phospholipid components (ITC) [2]	Solubility (10 mM Tris-HCl, pH7.4) [3]	Kd [4] [µM]
amphotericin B	severe hemolysis	markedly increased	did not bind	0.83 (µg/mL)	26.1
nystatin			did not bind		24.9
